From PubChem BioAssay
Only some compounds are listed: those with a hit (about 13% of all), similar ones and a draw of the others.
miR-21 FLuc = miR-21 reporter, rising signal | HeLa miR-21 FLuc reporter, luciferase, 48 h | Potency, µM (top dose mostly 38.3 µM), inactives show at the top dose reporter change, positive = more light | 340,000 tested, under 10 active | AID 2288; active = well fitted rising curve with a large enough effect; inconclusive = small, poorly fitted or top-dose-only effect; inactive = no such curve, though single readings can be large or run the other way;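 further: % of control where 0% means no effect; miR-21 action dims this reporter so a rising signal means less miR-21 action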
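HeLa cells stably expressing CMV-driven firefly luciferase with a downstream miR-21 binding sequence, endogenously expressing miR-21, were treated with titrations (up to about 40uM final) for 48 hours at 37 degree Celsius. Luciferase luminescence was read after lysis.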
JMJD2E inh = JMJD2E (human) inhibition; B2RXH2; JMJD2E catalytic domain, FDH-coupled NADH fluorescence (FDH is formaldehyde dehydrogenase); Potency, µM (highest dose often 57.1 µM), inactives show at the highest dose activity change, negative = inhibition, usual class: inhibitors; hit rate 1.6% among 230,000; AID 2147; active = well fitted inhibition curve with a large enough effect, not every such curve was filed as active; inconclusive = small, poorly fitted or top-dose-only effect, or another doubt; inactive = no such curve, though single readings can be large or run the other way;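 also: potency is read from the fitted curve at half-maximal effect; 0% = wells with enzyme and -100% = buffer wells without enzyme; nearly all actives have a fitted effect of over 50% in size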
ALDH1A1 block = blocks purified human ALDH1A1 activity. AID 1030. P00352. Potency, µM (highest dose often 75.3 µM), inactives show at the top dose activity, negative = inhibition, hits mostly inhibitors. Purified ALDH1A1, NADH fluorescence, propionaldehyde substrate. hit rate 7.3% among 220,000; active = well fitted inhibition curve with a large enough effect, not every such curve was filed as active; inconclusive = small, poorly fitted or top-dose-only effect, or another doubt; inactive = no such curve, though single readings can be large or run the other way;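 also: potency is read from the fitted curve at half-maximal effect; plate controls were no enzyme wells and a reference inhibitor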
G9a inh = G9a (human) methyltransferase inhibition; Q96KQ7; G9a H3K9 monomethylation, AlphaScreen, 2 h; Potency, µM (highest dose often 102 µM), without a hit: at the top dose activity, negative = inhibition, most hits filed as inhibitors; hit rate 8.8% among 350,000; AID 504332; also: potency is read from the fitted curve at half-maximal effect; % is scaled to controls: 0 for no effect and ±100 for the full control effect; nearly all actives have a fitted effect of over 75% in size
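Compounds were preincubated with 20 nM G9a for 15 min, after which biotinylated H3K9 peptide (500 nM) and SAM (20 uM) started a 2 h room-temperature reaction. Monomethylated product was quantified by antibody-based AlphaScreen chemiluminescence.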
Lamin A splicing = LMNA splicing modulation; HeLa LMNA splicing GFP/RFP minigene ratio, 48 h; Potency, µM (titrated, usually from 46.1 µM), inactives show at the top dose ratio change, negative = inhibition, hits mostly inhibitors; hit rate 0.01% among 200,000; active = well fitted inhibition curve with a large enough effect in the signal ratio, with a control signal flat, not every such curve was filed as active; inconclusive = small, poorly fitted or top-dose-only effect, or effect the other way, or a change in a side signal; the % refers to the signal ratio; also: potency is read from the fitted curve at half-maximal effect; % is scaled to controls: 0 for no effect and ±100 for the full control effect
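Read-out is the ratio of GFP to DsRed2 object intensity, acquired by 488 nm laser-scanning cytometry on HeLa lamin A-EGFP minigene reporter cells. Compound incubation 48 hrs at 37 °C in Opti-MEM with 2% FBS; DMSO 0.5% final.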
Sfp inh = blocks B. subtilis Sfp PPTase activity. AID 1490. Q9F4F7. Biochemical Sfp PPTase activity, qHTS. hit rate 3.5% among 310,000. Potency, µM, for the others: max response, negative = inhibition, usual class: inhibitors; active = well fitted inhibition curve with a large enough effect; inconclusive = small, poorly fitted or top-dose-only effect, or another doubt; inactive = no such curve, though single readings can be large or run the other way;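 also: the enzyme is Sfp with the accession as filed and its product quenches rhodamine fluorescence; potency is read from the fitted curve at half-maximal effect; 0% = enzyme reaction without inhibitor and -100% = no enzyme wells; top concentration of the series not given in the record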
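Compounds were incubated with enzyme (final 15 nM) for 15 min at room temperature before substrate addition started the reaction. Fluorescence at 525 nm excitation, 598 nm emission was recorded immediately and after 30 minutes.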
* hit, by the source's call; ? = inconclusive; / = no result given; [ ] = another dose, or the depositor's remark. Unless noted, calls follow the shape of the dose curve; as a rule, active = well fitted curve in the direction sought with a large enough effect; inconclusive = small, poorly fitted or top-dose-only effect, or another doubt; inactive = no such curve, though single readings can be large; an effect the other way counts as inactive or inconclusive.

Key to letters – A = miR-21 FLuc; B = JMJD2E inh; C = ALDH1A1 block; D = G9a inh; E = Lamin A splicing; F = Sfp inh
> COc1cc(C2Nc3cccc4cccc(c34)N2)ccc1O
  A = -2.7%; B = /; C = /; D = 8.91µM*; E = /; F = 44.7µM*
> CCN(CC)c1ccc(C2Nc3cccc4cccc(c34)N2)c(O)c1
  A = -27.8%; B = 4.4%; C = ?; D = 31.6µM*; E = 4.9%; F = -14.0%
> O=C(O)[C@H]1CN(C/C=C/P(=O)(O)O)CCN1
  A = /; B = 1.0%; C = -2.4%; D = -28.7%[12.7 µM]; E = /; F = 13.4%
> O=C(c1ccc2c(c1)N(Cc1ccc(Cl)cc1)C(=O)c1ccccc1S2(=O)=O)N1CCc2ccccc21
  A = 2.6%; B = /; C = /; D = -7.4%[59 µM]; E = /; F = /
> O=c1c(-c2cccc(F)c2)nc2cncnc2n1Cc1ccccc1Cl
  A = /; B = /; C = ?; D = 2.1%[0.501 µM]; E = -0.7%; F = -4.9%
> O=[N+]([O-])c1ccc(Nc2nc(NCCO)nc(N3CCCC3)n2)cc1
  A = -8.7%; B = -2.0%; C = 1.58µM*; D = 44.7µM*; E = ?; F = 9.6%
> O=C(Nc1nnc(-c2ccc(Br)cc2)o1)c1ccco1
  A = /; B = /; C = /; D = -22.6%; E = /; F = /
> O=C(Nc1nnc(-c2cccs2)o1)c1ccco1
  A = -9.7%; B = -9.1%; C = -7.0%; D = 10µM*; E = -4.0%; F = -28.4%
> CS(=O)(=O)c1ccc(-c2nnc(NC(=O)c3ccco3)o2)cc1
  A = /; B = /; C = /; D = 12.6µM*; E = /; F = /
> O=C(Nc1nnc(-c2ccccc2Cl)o1)c1ccco1
  A = -7.0%; B = -5.5%; C = 0.3%; D = ?; E = 0.0%; F = -8.2%
> O=C(NCCCN1CCCC1=O)c1cn(-c2ccccc2)nc1-c1ccccc1
  A = -8.5%; B = /; C = /; D = /; E = /; F = 18.2%
> CC(=O)Nc1ccc2c(CSc3nnc(-c4cccnc4)n3-c3ccc(C)cc3C)cc(=O)oc2c1
  A = -3.5%; B = 1.9%; C = ?; D = 8.91µM*; E = -14.5%; F = -13.7%
> Fc1ccc(Nc2nc(N3CCOCC3)nc(N3CCOCC3)n2)cc1
  A = -3.3%; B = /; C = /; D = 44.7µM*; E = /; F = 11.6%
> Cc1ccc(Nc2nc(N3CCOCC3)nc(N3CCOCC3)n2)cc1C
  A = -15.3%; B = /; C = /; D = 50.1µM*; E = /; F = 5.5%
> Cc1cccc(Nc2nc(N3CCOCC3)nc(N3CCOCC3)n2)c1
  A = -3.6%; B = /; C = /; D = ?; E = /; F = 4.2%

(more compounds)
Key to letters – A = miR-21 FLuc; B = JMJD2E inh; C = ALDH1A1 block; D = G9a inh; E = Lamin A splicing; F = Sfp inh
> Cc1sc2ncn(CC(=O)N(C)c3cccc(C(F)(F)F)c3)c(=O)c2c1S(=O)(=O)N1CCN(c2ncccn2)CC1
  A = 17.9%; B = /; C = /; D = -33.5%[59 µM]; E = /; F = /
> COc1ccc(C(=O)Nc2ccc3oc(-c4cc(Cl)ccc4Cl)nc3c2)cc1Br
  A = -6.7%; B = /; C = /; D = -4.4%[59 µM]; E = /; F = /
> O=C(CSc1ccc(-c2ccco2)nn1)N1CCCC1
  A = -3.5%; B = ?; C = ?; D = ?; E = /; F = 50.1µM*
> O=C(CSc1ccc(-c2ccco2)nn1)N1CCCCC1
  A = -16.7%; B = ?; C = ?; D = 22.4µM*; E = /; F = ?
> O=C(CSc1ccc(-c2ccccn2)nn1)N1CCCC1
  A = -12.4%; B = 0.3%; C = -2.2%; D = 3.55µM*; E = -9.1%[46 µM]; F = 44.7µM*
> CCN1C(=O)/C(=C\N(C)C)NC1=S
  A = -4.4%; B = -3.9%; C = 18.5%; D = -4.7%[59 µM]; E = 2.7%; F = 3.8%
> CN(C)/C=C1/NC(=S)NC1=O
  A = -2.0%; B = 6.9%; C = -0.6%; D = 35.5µM*; E = -3.3%[46 µM]; F = 79.4µM*
> Cc1c(C(=O)N(C)C2CCCCC2)sc2nc3ccc(N)cc3n12
  A = /; B = /; C = ?; D = 25.1µM*; E = /; F = 15.8%
> CCCc1ccc(C(=O)NNc2ccccc2F)cc1
  A = -26.6%; B = -17.7%; C = /; D = 56.2µM*; E = /; F = 2.4%
> COc1ccccc1NC(=O)NNC(=O)CCc1ccccc1
  A = -1.1%; B = /; C = /; D = 13.1%; E = /; F = 6.8%
> Cc1cc(C(=O)NNc2c(Cl)cccc2Cl)no1
  A = -6.2%; B = 8.2%; C = /; D = 28.2µM*; E = /; F = 3.0%
> CCc1ccccc1NNC(=O)CCc1ccccc1
  A = -12.8%; B = -20.8%; C = -2.2%; D = 28.2µM*; E = -2.8%[46 µM]; F = 13.9%
> Cc1cc(C(=O)NNc2cc(Cl)ccc2Cl)no1
  A = -11.9%; B = -1.1%; C = /; D = -22.3%; E = /; F = 14.6%
> Cc1cc(C(=O)NNc2ccc(F)cc2)no1
  A = 14.7%; B = -11.3%; C = ?; D = 28.2µM*; E = /; F = 3.9%
> Cc1ccc(NC(=O)c2cc(C)on2)cc1
  A = -26.1%; B = -5.4%; C = ?; D = ?; E = -8.5%; F = 5.7%

Next part
Key to letters – A = miR-21 FLuc; B = JMJD2E inh; C = ALDH1A1 block; D = G9a inh; E = Lamin A splicing; F = Sfp inh
> CC(C)COC(=O)N1CCN(S(=O)(=O)c2ccc3c(c2)CCC3)CC1
  A = /; B = /; C = /; D = -4.6%[12.7 µM]; E = /; F = /
> O=C(NC12CC3CC(CC(C3)C1)C2)c1ccc(N2CCNCC2)c([N+](=O)[O-])c1
  A = -5.5%; B = 2.5%; C = -15.5%; D = 4.8%; E = /; F = 4.5%
> Cc1nc2cnc(N(C)C)nc2n(-c2ccccc2)c1=O
  A = /; B = /; C = ?; D = -2.7%[0.501 µM]; E = -19.5%; F = 16.7%
> O=C(NNc1c(Cl)cccc1Cl)c1sccc1Cl
  A = -7.2%; B = -6.8%; C = /; D = 12.6µM*; E = /; F = -4.9%
> Cc1cc(C(=O)NNc2ccccc2F)no1
  A = 18.5%; B = -0.1%; C = /; D = 39.8µM*; E = /; F = 6.2%
> CSc1ccccc1NC(=O)c1cc(C)on1
  A = -14.5%; B = 7.4%; C = 4.7%; D = -1.5%[12.7 µM]; E = 5.7%; F = ?
> CCc1ccccc1NNC(=O)c1cc(C)on1
  A = -22.6%; B = -3.7%; C = 6.9%; D = 3.16µM*; E = ?; F = 1.9%
> O=C(COc1ccccc1Cl)Nc1ccc(Cl)c(-c2nc3ccccc3o2)c1
  A = -6.8%; B = /; C = /; D = 5.2%[59 µM]; E = /; F = /
> COc1ccc(CNC(=O)Cn2nnc(-c3ccc(C(F)(F)F)cc3)n2)cc1
  A = -6.6%; B = /; C = /; D = -12.5%[59 µM]; E = 6.2%[46 µM]; F = /
> COc1ccc(/C=C2\SC(=O)N(CCNC(=O)CN3C(=O)NC4(CCCC4)C3=O)C2=O)cc1
  A = /; B = /; C = /; D = 50.1µM*; E = /; F = /
> O=C(CN1C(=O)NC2(CCCC2)C1=O)NCCN1C(=O)S/C(=C\c2ccccc2F)C1=O
  A = /; B = /; C = /; D = -22.4%; E = /; F = /
> CC(=O)O[C@H]1C(=O)[C@@]2(C)C([C@H](OC(=O)c3ccccc3)[C@]3(O)C[C@H](OC(=O)[C@H](O)[C@@H](NC(=O)c4ccccc4)c4ccccc4)C(C)=C1C3(C)C)[C@]1(OC(C)=O)CO[C@@H]1C[C@@H]2O (stereo partly drawn)
  A = /; B = 3.5%; C = 5.6%; D = 17.6%[59 µM]; E = ?; F = 44.7µM*
> CC(=O)OC1C(=O)[C@@]2(C)C(O)CC3OC[C@]3(OC(C)=O)C2C(OC(=O)c2ccccc2)[C@]2(O)CC(OC(=O)C(O)C(NC(=O)c3ccccc3)c3ccccc3)C(C)=C1C2(C)C (stereo partly drawn)
  A = /; B = -3.3%; C = 3.8%; D = -10.1%[2.33 µM]; E = /; F = -43.5%
> CCOc1ccc2ncc(C(=O)c3ccc(OC)cc3)c(N3CCN(CC)CC3)c2c1
  A = 2.9%; B = 3.5%; C = 0.708µM*; D = 44.7µM*; E = -7.3%[46 µM]; F = 3.5%
> CCOC(=O)c1cnc2ccc(OCC)cc2c1N1CCN(c2ccccc2OC)CC1
  A = 16.1%; B = 8.8%; C = ?; D = -21.4%; E = ?; F = ?

Continued; it opens with the two that closed the last part.
Key to letters – A = miR-21 FLuc; B = JMJD2E inh; C = ALDH1A1 block; D = G9a inh; E = Lamin A splicing; F = Sfp inh
> CCOc1ccc2ncc(C(=O)c3ccc(OC)cc3)c(N3CCN(CC)CC3)c2c1
  A = 2.9%; B = 3.5%; C = 0.708µM*; D = 44.7µM*; E = -7.3%[46 µM]; F = 3.5%
> CCOC(=O)c1cnc2ccc(OCC)cc2c1N1CCN(c2ccccc2OC)CC1
  A = 16.1%; B = 8.8%; C = ?; D = -21.4%; E = ?; F = ?
> CCOC(=O)C1CCN(c2c(C(=O)c3ccccc3)cnc3ccc(Cl)cc23)CC1
  A = 7.9%; B = -5.8%; C = 4.47µM*; D = ?; E = /; F = 7.0%
> CCOC(=O)C1CCCN(c2c(C(=O)c3ccc(C)cc3)cnc3ccc(OCC)cc23)C1 (stereo not drawn)
  A = 12.3%; B = /; C = /; D = 1.41µM*; E = /; F = /
> CCOc1ccc(C(=O)c2cnc3ccccc3c2N2CCN(CC)CC2)cc1
  A = -14.3%; B = -10.6%; C = 8.91µM*; D = ?; E = /; F = 15.5%
> CCc1ccc(C(=O)c2cnc3ccc(OC)cc3c2N2CCN(CC)CC2)cc1
  A = -0.1%; B = 2.9%; C = 17.8µM*; D = 39.8µM*; E = ?; F = 7.1%
> O=C(Nc1cccc(F)c1)N1CC2(CCN(C(=O)c3cc(C(F)(F)F)cc(C(F)(F)F)c3)CC2)C1
  A = /; B = /; C = 3.3%; D = 39.3%[12.7 µM]; E = /; F = 13.7%
